{"source": "patent US20250057893A1", "about": "“PHARMACEUTICAL COMPOSITION FOR PREVENTING OR TREATING CANCER OR INFLAMMATORY DISEASE” (ENTEROBIOME INC., priority 2021, published 2025)", "test_system": "Bacteroides thetiotaomicron ATCC 29741", "test": "Antimicrobial susceptibility, broth microdilution MIC (CLSI), QC strain", "details": "ATCC29741 / ATCC297415, read-out: MIC, QC ATCC 297415"}
{"molecule": "CCC[C@@H]1C[C@@H](C(=O)N[C@@H]([C@H]2O[C@H](SC)[C@H](O)[C@@H](O)[C@H]2O)[C@H](C)Cl)N(C)C1", "note": "[CLI, clindamycin]", "values": [{"measurement": "MIC", "value": 4, "unit": "µg/mL"}]}
